The structures appear in SMILES notation.

By UniProt entry, the sequences of proteins in these tests, tags left out.
UniProt Q96S37, whole entry G444S/V445L/I452V/Y455F: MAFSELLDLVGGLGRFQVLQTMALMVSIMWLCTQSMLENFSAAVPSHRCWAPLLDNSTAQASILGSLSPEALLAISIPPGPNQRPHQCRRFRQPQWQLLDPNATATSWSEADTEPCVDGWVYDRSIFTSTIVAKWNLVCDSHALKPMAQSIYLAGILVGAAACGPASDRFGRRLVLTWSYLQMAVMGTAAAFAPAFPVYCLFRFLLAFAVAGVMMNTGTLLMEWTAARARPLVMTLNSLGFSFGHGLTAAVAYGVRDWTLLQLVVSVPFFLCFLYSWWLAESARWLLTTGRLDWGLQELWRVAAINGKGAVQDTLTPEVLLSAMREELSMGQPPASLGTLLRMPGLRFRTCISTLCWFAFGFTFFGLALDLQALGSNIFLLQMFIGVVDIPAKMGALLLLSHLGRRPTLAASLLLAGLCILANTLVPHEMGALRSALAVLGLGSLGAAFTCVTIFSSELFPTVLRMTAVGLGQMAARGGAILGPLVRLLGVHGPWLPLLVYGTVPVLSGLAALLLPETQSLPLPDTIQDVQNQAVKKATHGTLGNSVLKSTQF

The target of the test is T1, h-r TM10 URAT1 chimera (Homo sapiens, UniProt Q96S37, G444S/I452V/V445L/Y455F).
T1 construct: expressed in transfected cells; host or cells: HEK-293T
The test is described as follows: URAT1 uric acid transport activity assay. The test is classed as cell-based, human/rat. The following applies: MES pH 5.5, 100 μM 14C-uric acid. The source says: hURAT1 (GenBank BC053348.1) and rURAT1 (NCBI NM_001034943.1) genes were purchased from Origene Technologies, Inc. and subcloned into pCMV6/neo using NotI, creating pCMV6/neo-hURAT1 and pCMV6/neo-rURAT1. Mutants were produced by polymerase chain reaction (PCR) or site-directed mutagenesis using the QuikChange Lightning Multi Site-Directed Mutagenesis Kit (Agilent Technologies). […] Detailed methods are provided in Supplementary Methods, and primers are listed in Supplementary Table 1. […] Residues in rURAT1 and hOAT1 that correspond to the residues in hURAT1 were identified from aligned protein sequences (Supplementary Fig. 1)[50].
DNA (10 μg) was mixed with 30 μl of DreamFect Gold (Boca Scientific) in 2 ml OptiMem (Life Technologies). […]
Compounds were serially diluted into assay buffer and added to the cells for 5 minutes prior to addition of radiolabelled uric acid substrate. […] Each treatment was measured in triplicate. […]
Nonlinear regression analyses using GraphPad Prism software were used to calculate the potency of URAT1 inhibitors (IC50 values) from log (inhibitor) versus response - variable slope (four parameters) equations. Statistical significance was assessed using Student’s unpaired t-tests.

As usually defined, the IC50 is the concentration at which inhibition is half-maximal. `O=C(O)CSc1nnc(Br)n1-c1ccc(C2CC2)c2ccccc12` [lesinurad, 2-((5-bromo-4-(4-cyclopropylnaphthalen-1-yl)-4H-1,2,4-triazol-3-yl)thio)acetic acid] returned an IC50 of 4.4 ± 1.3 µM.
